Experimental data reported in patent publication US9090593B2, “Bicyclic compounds as Pim inhibitors” (AMGEN INC., priority 2010, dated 2015).

The chains behind the UniProt entries cited, without tags or fusion partners.
UniProt P11309, whole entry: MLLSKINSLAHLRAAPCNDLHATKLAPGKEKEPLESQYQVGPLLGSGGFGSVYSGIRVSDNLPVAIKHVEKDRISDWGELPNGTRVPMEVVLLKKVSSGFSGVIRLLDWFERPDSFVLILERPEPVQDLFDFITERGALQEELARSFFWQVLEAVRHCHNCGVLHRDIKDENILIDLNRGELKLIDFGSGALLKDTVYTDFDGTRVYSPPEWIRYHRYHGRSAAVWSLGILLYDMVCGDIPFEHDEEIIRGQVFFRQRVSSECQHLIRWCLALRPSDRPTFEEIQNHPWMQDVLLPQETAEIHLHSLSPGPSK
UniProt Q9P1W9, whole entry: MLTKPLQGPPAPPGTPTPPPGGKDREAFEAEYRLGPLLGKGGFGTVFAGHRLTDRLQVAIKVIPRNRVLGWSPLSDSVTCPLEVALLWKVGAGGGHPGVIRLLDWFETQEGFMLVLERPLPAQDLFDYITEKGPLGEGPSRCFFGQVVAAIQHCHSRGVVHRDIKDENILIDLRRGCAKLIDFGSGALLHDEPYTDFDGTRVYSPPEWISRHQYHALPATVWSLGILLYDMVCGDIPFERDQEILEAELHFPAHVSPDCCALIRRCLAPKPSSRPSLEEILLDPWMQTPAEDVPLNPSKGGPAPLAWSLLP

Key:
[1] = target: full length recombinant Pim-1 protein (Homo sapiens, UniProt P11309); experiment: Pim-1 enzyme assay (HTRF, phosphorylation of biotinylated-BAD (S112) peptide); format: biochemical; conditions: read-out: Pim_1_IC50
[2] = target: full length recombinant Pim-2 protein (Homo sapiens, UniProt Q9P1W9); experiment: Pim-2 enzyme assay (HTRF, phosphorylation of biotinylated-BAD (S112) peptide); format: biochemical; conditions: read-out: Pim2_IC50
[3] = test system: KMS-Cell; experiment: KMS cell IC50 (Table 4); format: cell-based; conditions: read-out: KMS-Cell-IC50, KMS cells
[4] = target: Pim-1 stably transfected into the U2OS human osteogenic sarcoma line (Homo sapiens, UniProt P11309); experiment: Pim cell assay, phospho-BAD normalized against total BAD, U2OS stably transfected with Pim-1
[5] = target: Pim-2 stably transfected into the U2OS human osteogenic sarcoma line (Homo sapiens, UniProt Q9P1W9); experiment: Pim cell assay, phospho-BAD normalized against total BAD, U2OS stably transfected with Pim-2
[6] = tested form: racemate: mixture of the (3S,5R) and (3R)
[7] = tested form: racemate: mixture of the (3S,4S) and (3R)
[8] = tested form: racemic trans pair, (3R,4R) and (3S,4S)
[9] = tested form: racemic cis pair: (3R,4S) and (3S,4R) en
[10] = tested form: racemic trans pair: (3R,4R) and (3S,4S)
[11] = read-out: Pim1_Cell_IC50_, 29 min incubation
[12] = tested form: racemate (8S and 8R)
[13] = tested form: racemic trans mixture, (3S,4S) and (3R,4)
[14] = tested form: racemic cis pair, (3R,4S) and (3S,4R), t
[15] = tested form: single trans enantiomer, (3S,4S) or (3R)
[16] = tested form: racemate (4R and 4S)

Structure (SMILES): CC(C)C1CCNCC1Oc1cncc(-c2n[nH]c3ccc(-c4c(F)cccc4F)cc23)n1 (centres unmarked)
IC50 [1, 7]: 13 nM | IC50 [2, 7]: 16 nM | IC50 [3, 7]: 9970 nM

Structure (SMILES): CC1CNCC(Nc2nc(-c3n[nH]c4cc(F)c(-c5c(F)cccc5F)cc34)cc(=O)[nH]2)C1 (centres unmarked)
IC50 [1]: 1 nM | IC50 [2]: 4 nM | IC50 [3]: 6690 nM

Structure (SMILES): FC1CNCCC1Oc1cncc(-c2n[nH]c3ccc(-c4cncc(C5CC5)n4)cc23)n1 (single isomer, unassigned)
IC50 [1, 9]: 1 nM | IC50 [2, 9]: 14 nM | IC50 [2, 10]: 4 nM | IC50 ([4]; read-out: Pim1_Cell_IC50_, 29 min incubation, tested form: racemic cis pair: (3R,4S) and (3S,4R) en): 50 nM | IC50 ([4]; read-out: Pim1_Cell_IC50_, 29 min incubation, tested form: racemic trans pair: (3R,4R) and (3S,4S)): 51 nM | IC50 ([5]; read-out: Pim2_Cell_IC50_, 29 min incubation, tested form: racemic cis pair: (3R,4S) and (3S,4R) en): > 15800 nM | IC50 ([5]; read-out: Pim2_Cell_IC50_, 29 min incubation, tested form: racemic trans pair: (3R,4R) and (3S,4S)): 4310 nM | IC50 [3, 10]: 2450 nM

Structure (SMILES): Fc1cccc(F)c1-c1ccc2[nH]nc(-c3cncc(OC4C=CCNC4)n3)c2c1 (centres unmarked)
IC50 [2]: 46 nM | IC50 [4, 11]: 1390 nM | IC50 ([5]; read-out: Pim2_Cell_IC50_, 29 min incubation): > 15800 nM

Structure (SMILES): CC[C@@H]1CCNC[C@H]1Oc1cncc(-c2n[nH]c3ccc(-c4c(F)cccc4F)cc23)n1 [Example 397]
IC50 [1]: 13 nM | IC50 [2]: 14 nM | IC50 [3]: 8010 nM

Structure (SMILES): Brc1ccc2[nH]nc(-c3cncc(OC4CNCCC45CC5)n3)c2c1 (centres unmarked)
IC50 [1]: 25 nM | IC50 [2]: 42 nM

Structure (SMILES): Fc1cccc(F)c1-c1ccc2[nH]nc(-c3cncc(OC4CCNCC45CC5)n3)c2c1 (centres unmarked)
IC50 [1, 12]: 1 nM | IC50 [2, 12]: 6 nM | IC50 [3, 12]: 7870 nM

Structure (SMILES): CC1(C)CNCCC1Oc1cncc(-c2n[nH]c3ccc(-c4c(F)cccc4F)cc23)n1 (centres unmarked)
IC50 [1]: 4 nM | IC50 [2]: 55 nM | IC50 [4, 11]: 1540 nM

Structure (SMILES): C[C@@H]1CNC[C@H](Oc2nc(O)cc(-c3n[nH]c4ccc(-c5c(F)cccc5F)cc34)n2)C1
IC50 [1]: 1 nM | IC50 [2]: 2 nM | IC50 [3]: 1330 nM

Structure (SMILES): C[C@H]1CNC[C@@H](Nc2nc(-c3n[nH]c4cc(F)c(-c5c(F)cccc5F)cc34)cc(=O)[nH]2)C1
IC50 [1]: 1 nM | IC50 [2]: 5 nM | IC50 [3]: 11200 nM

Structure (SMILES): Fc1cccc(F)c1-c1ccc2[nH]cc(-c3cncc(OC4CNCCC45CC5)n3)c2c1 (centres unmarked)
IC50 [1, 16]: 1 nM | IC50 [2, 16]: 2 nM | IC50 ([4]; read-out: Pim1_Cell_IC50_, 29 min incubation, tested form: racemate (4R and 4S)): 180 nM | IC50 ([5]; read-out: Pim2_Cell_IC50_, 29 min incubation, tested form: racemate (4R and 4S)): 2490 nM

The next lines start with the values.

IC50 [1, 6]: 1 nM | IC50 [2, 6]: 3 nM | IC50 [3, 6]: 12000 nM
Structure (SMILES): CC1CNCC(Nc2nc(-c3n[nH]c4ccc(-c5c(F)cccc5F)cc34)cc(=O)[nH]2)C1 (centres unmarked)

IC50 [1, 8]: 1 nM | IC50 [2, 8]: 3 nM | IC50 [3, 8]: 2740 nM
Structure (SMILES): O=c1cc(-c2n[nH]c3ccc(-c4cccnc4F)cc23)nc(OC2CNCCC2F)[nH]1 (centres unmarked)

IC50 [1, 13]: 1 nM | IC50 [2, 13]: 1 nM | IC50 [3, 13]: 970 nM
Structure (SMILES): O=c1cc(-c2n[nH]c3ccc(-c4ccc(F)cc4F)cc23)nc(OC2CNCCC2F)[nH]1 (centres unmarked)

IC50 [1]: 1 nM | IC50 [2]: 2 nM | IC50 [3]: 4890 nM
Structure (SMILES): C[C@@H]1CNC[C@@H](Nc2nc(-c3n[nH]c4ccc(-c5c(F)cccc5F)cc34)cc(=O)[nH]2)C1 (relative stereo)

IC50 [1]: 1 nM | IC50 [1, 14]: 3 nM | IC50 [2]: 3 nM | IC50 [2, 14]: 9 nM | IC50 [3]: 1500 nM | IC50 [3, 14]: 4680 nM
Structure (SMILES): O=c1cc(-c2n[nH]c3ccc(-c4c(F)cccc4F)cc23)nc(OC2CCNCC2F)[nH]1 (single isomer, unassigned)

IC50 [1, 15]: 1 nM | IC50 [2, 15]: 1 nM | IC50 [3, 15]: 3610 nM
Structure (SMILES): CS(=O)(=O)c1ccc(-c2ccc3[nH]nc(-c4cc(=O)[nH]c(OC5CNCCC5F)n4)c3c2)c(F)c1 (centres unmarked)

IC50 [1]: 5 nM | IC50 [2]: 12 nM | IC50 [3]: > 31600 nM
Structure (SMILES): N#Cc1ccncc1-c1ccc2[nH]nc(-c3cc(=O)[nH]c(OC4CNCCC4F)n3)c2c1 (centres unmarked)

Like-named read-outs stand apart in the source and are kept apart here. Each block holds one compound with its values, some of them ahead of it.
